The experiment concerns the target human FSH receptor (human) (UniProt P23945). The experiment in a line: cell-based or functional assay.

The chains behind the UniProt entries cited, without tags or fusion partners. Residues count along the entry.
UniProt P23945, 18-695: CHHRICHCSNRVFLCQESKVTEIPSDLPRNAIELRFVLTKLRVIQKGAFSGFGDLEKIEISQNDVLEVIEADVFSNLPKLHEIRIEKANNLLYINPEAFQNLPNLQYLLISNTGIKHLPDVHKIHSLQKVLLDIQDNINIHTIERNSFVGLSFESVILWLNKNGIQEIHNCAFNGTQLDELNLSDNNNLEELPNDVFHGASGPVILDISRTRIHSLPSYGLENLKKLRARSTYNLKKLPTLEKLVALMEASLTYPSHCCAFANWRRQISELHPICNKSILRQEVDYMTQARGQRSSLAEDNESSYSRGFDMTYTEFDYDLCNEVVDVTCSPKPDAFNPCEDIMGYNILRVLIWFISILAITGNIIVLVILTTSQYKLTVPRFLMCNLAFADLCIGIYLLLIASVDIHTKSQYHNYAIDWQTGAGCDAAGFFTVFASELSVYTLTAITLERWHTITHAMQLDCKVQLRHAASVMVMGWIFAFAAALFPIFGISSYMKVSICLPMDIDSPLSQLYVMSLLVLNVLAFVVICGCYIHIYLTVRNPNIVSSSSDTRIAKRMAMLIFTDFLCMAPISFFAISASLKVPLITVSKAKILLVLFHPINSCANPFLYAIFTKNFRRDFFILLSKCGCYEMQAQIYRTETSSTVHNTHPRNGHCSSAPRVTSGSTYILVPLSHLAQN

Substance “Gonal-F (from UniProt P01215 25-116; P01225 19-129) (ligand)” came in with a 50% effective concentration (EC50) of cAMP production in CHO-FSHR cells of 0.104 nM.

Values taken from patent US20190055295A1.
